Binding of CDR-mutated scFvs to a peptide of the spike HR2 region

The target is the same throughout: PDVDLGDISGINAS, from the HR2 region of SARS-CoV-2 spike.

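The parent was found by panning a naive human phage display library on the peptide. Library AAYL49 holds single substitutions and randomly drawn double and triple substitutions in the CDRs. In AlphaSeq, yeast of one mating type display the scFv and yeast of the other type display the target. Mating (16 h, 30 °C) was followed by selection of diploids and sequencing of their barcodes. Scores were corrected for input abundance and mapped to Kd with protein pairs of known affinity run in the same pool. The assay was run in three technical replicates.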

The variants keep the light chain, the linker and the frameworks of Ab-14 (scFv order VH, a (GGGGS)3 linker, VL).
VH: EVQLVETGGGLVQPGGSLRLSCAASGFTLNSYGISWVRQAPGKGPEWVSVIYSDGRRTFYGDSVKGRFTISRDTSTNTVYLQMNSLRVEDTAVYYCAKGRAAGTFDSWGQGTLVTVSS
VL: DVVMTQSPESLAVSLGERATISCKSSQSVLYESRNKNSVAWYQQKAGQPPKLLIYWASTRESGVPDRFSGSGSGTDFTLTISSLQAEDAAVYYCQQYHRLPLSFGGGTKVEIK

The parent's heavy chain CDRs are GFTLNSYGIS, VIYSDGRRTFYGDSVK, GRAAGTFDS; each variant's own CDRs replace them letter for letter.
Values are log10 of the apparent Kd in nM; lower means stronger binding.
Averages over replicates are reported, and they cover detected replicates only.
"ND" marks a missing value. The strain was present, yet no cells mated with the target were sequenced in that replicate, which points to weak or no binding.
Nonspecific signal, from three strains lacking the peptide, appeared in 15% of pairings of library AAYL49, centred on 4.06 (5% of these signals below 2.83); values are not corrected for it. The control count says in how many pairings with the empty strains this scFv gave a signal, with their mean in brackets.
For reference, the parent read 0.65 as the reference entry and 4.11 (one replicate of three) as a member of this library.

CDR-H1 | CDR-H2 | CDR-H3 | replicates, log10 nM | mean, log10 nM | signal with controls
GFTLNFYGIS | VIYSDGRRTFYGDSPK | GRAVGTFDS | ND ND 3.03 | 3.03 | 1/9 (2.38)
GDTLNSMGIS | VIYSDGRRTFYVDSVK | GRAAGTFDS | 1.83 1.83 1.88 | 1.85 | 4/9 (4.30)
GFTLNSYGIS | VIYSTGRRTFYGDQVK | CRAAGTFDS | 3.85 ND ND | 3.85 | 4/9 (4.00)
GFTLNSYGIG | VIYSQGRRTFYGDSVK | GRAAGTFDS | ND ND ND | ND | 0/9
GFGLNSYGIS | VIDSDGRRTFQGDSVK | GRAAGTFDS | ND 3.47 ND | 3.47 | 0/9
GFTLNSYGIS | VIYSDGRRTFYEWSFK | GRAAGTFDS | ND ND ND | ND | 0/9
GFTLNSYGIS | VIYSDGRRTFYGDLVK | GSAAGTFDS | 1.80 1.92 2.15 | 1.96 | 2/9 (4.13)
GETLNSYGIS | VIYSDGRRTFYGDQVK | GRNAGTFDS | 0.37 0.61 0.50 | 0.49 | 0/9
GFTLNNYGIS | PAYSDGRRTFYGDSVK | GRAAGTFDS | ND ND ND | ND | 0/9
GFTLNSSGIS | VIYSDWRRTFYGDSVK | GRAAGTFDY | ND ND ND | ND | 0/9
GFTLNSYGIS | DIYSDGRRTFYNDSVK | GRAAGTFDS | ND ND ND | ND | 0/9
GFTLNSFGGS | VIYSDGRRTFYGDSDK | GRAAGTFDS | ND ND ND | ND | 1/9 (1.73)
GFTLNSYGIS | VIYSDGERYFYGDSVK | GRAAGTEDS | 2.15 2.28 2.66 | 2.36 | 3/9 (3.69)
GFTLNSYGIS | VIYSDGRNTFYGDSKK | GRAAGTFDT | ND ND ND | ND | 1/9 (3.22)
GKTLPSYGIS | VIYSDGRRTFYRDSVK | GRAAGTFDS | ND ND ND | ND | 0/9
GFTLNSYGIS | SIYSDGRRTFQGDSVK | GRAAGTFQS | ND ND ND | ND | 0/9
GFTLNSYGIS | VIYSDGRRTFYGDSVK | KRAAGTHDS | 2.61 2.52 2.09 | 2.41 | 3/9 (4.67)
GFTLNSYGIN | VIYSDGRRTFYGSSVK | GMAAGTFDS | 1.35 1.42 2.02 | 1.59 | 0/9
NFTLNSYGIS | VIYSDGDRTFYGDSVK | GRAAGTFDH | 3.71 4.05 3.41 | 3.73 | 0/9
GFTLNSYGIS | VIYHDGPRTFYGDSVK | GRAAGTFDS | 5.51 ND ND | 5.51 | 2/9 (3.33)
GFTLNSYGIE | DIYSDGRRTFYGDSVK | GRARGTFDS | ND ND ND | ND | 0/9
AFTLNSYGIS | VIYSDGRRTFYGDSVK | GRAAGTHDN | 3.22 3.58 ND | 3.40 | 4/9 (3.36)
GKTSNSYGIS | VIRSDGRRTFYGDSVK | GRAAGTFDS | 3.76 3.40 ND | 3.58 | 2/9 (3.02)
GFTHNSYGIS | VIYSDGRRTFYGDSVK | GRIAGRFDS | ND ND ND | ND | 1/9 (3.44)
GFTTNSYGIS | VIYSDGRATFYGDSVK | GRAAGTFDR | 4.79 5.68 ND | 5.24 | 2/9 (4.77)
GFTLNSYGIS | VIYSDGIRTFYPDSVK | GRAAGTFDL | 1.54 1.52 1.73 | 1.60 | 1/9 (5.52)
GFTLRSYGIS | VIYSDYRRTFYGDSVN | GRAAGTFDS | 2.58 ND 4.44 | 3.51 | 1/9 (2.55)
GFTLNSYGIS | VIYQDGRRTFKGDSVK | GRAADTFDS | ND ND ND | ND | 0/9
GFTLDSYGIS | VIYSDGGRTFYGDSVK | GRAAGTFHS | 3.23 3.48 3.21 | 3.31 | 3/9 (4.36)
GFTLNCYGIS | VIYSDGIRTFYGDSVH | GRAAGTFDS | 2.61 2.77 3.20 | 2.86 | 3/9 (3.78)
GFTFNSYGIS | VIYSEGRRTFYGDSVW | GRAAGTFDS | 4.78 2.64 ND | 3.71 | 5/9 (3.37)
GFTLNSYGIS | SKYSDGRRTFYGDSVK | GRAAGTMDS | ND ND ND | ND | 1/9 (3.63)

For reference, 4 entries of the list once more:

| CDR-H1 | CDR-H2 | CDR-H3 | replicates, log10 nM | mean, log10 nM | signal with controls |
|---|---|---|---|---|---|
| GFTLNSYGIE | DIYSDGRRTFYGDSVK | GRARGTFDS | ND ND ND | ND | 0/9 |
| GFTLNSYGIS | VIYSTGRRTFYGDQVK | CRAAGTFDS | 3.85 ND ND | 3.85 | 4/9 (4.00) |
| GFGLNSYGIS | VIDSDGRRTFQGDSVK | GRAAGTFDS | ND 3.47 ND | 3.47 | 0/9 |
| GFTLNSYGIS | SKYSDGRRTFYGDSVK | GRAAGTMDS | ND ND ND | ND | 1/9 (3.63) |

Reference: Engelhart et al. 2022, doi:10.1038/s41597-022-01779-4. File: FLAb, binding data.